## AlphaSeq binding of Ab-95 light chain variants to a spike HR2 peptide

Values reported by Engelhart et al. 2022, doi:10.1038/s41597-022-01779-4 (FLAb copy).

All variants were tested on one target, the spike HR2 peptide PDVDLGDISGINAS (SARS-CoV-2).

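Library AAYL52 holds single substitutions and randomly drawn double and triple substitutions in the CDRs. Affinity was read by AlphaSeq, a pooled yeast mating assay with surface-displayed partners. The frequency of each diploid, read from paired DNA barcodes, reflects how well the two displayed proteins bind. Scores were corrected for input abundance and mapped to Kd with protein pairs of known affinity run in the same pool. The assay was run in three technical replicates.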

Ab-95 is the parent antibody, in scFv form: VH, then three GGGGS repeats, then VL. The heavy chain is unchanged in all variants.
VH: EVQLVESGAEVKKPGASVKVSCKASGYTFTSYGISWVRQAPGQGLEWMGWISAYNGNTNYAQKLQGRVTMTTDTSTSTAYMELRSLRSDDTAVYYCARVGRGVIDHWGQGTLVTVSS
VL: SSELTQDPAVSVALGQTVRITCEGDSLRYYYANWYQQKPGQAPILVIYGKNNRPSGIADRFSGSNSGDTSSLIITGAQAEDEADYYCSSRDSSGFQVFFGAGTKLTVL

Variants are written as CDR1, CDR2 and CDR3 of the light chain (limits as in the source). Parent: EGDSLRYYYAN, GKNNRPS, SSRDSSGFQVF. Values are log10 of the apparent Kd in nM; lower means stronger binding. An entry "n.d." has no value in the source: the pair was not observed among the diploids in that replicate. This suggests poor binding but is not conclusive. Background: pairings of library AAYL52 with three empty control strains gave a value in 28% of cases (median 3.91, 5th percentile 2.90). Values in that range, when seen in few replicates, are hard to tell from nonspecific mating. For each scFv, signals with the empty controls are counted beside the result, with their mean in brackets.

| # | CDR-L1 | CDR-L2 | CDR-L3 | replicates, log10 nM | empty controls |
|---|---|---|---|---|---|
| 1 | FGDVLRYYYAN | GKNNRPS | SSMDSSGFQVF | 3.74 / n.d. / n.d. | 0/9 |
| 2 | FGDSLRYYYAN | GKNNRPS | SSRDSSGFQVK | n.d. / n.d. / n.d. | 0/9 |
| 3 | EGDSLRYYYKN | GKNFRPS | SSRDSAGFQVF | 3.25 / 3.83 / 3.25 | 1/9 (3.34) |
| 4 | EGDSLRYYYAN | GKNNRWS | SSCDSSGFQVF | 5.83 / n.d. / n.d. | 2/9 (4.26) |
| 5 | EHDSLRYYYSN | GKNNRPS | SSRDSLGFQVF | 2.90 / 3.55 / 2.98 | 6/9 (3.90) |
| 6 | EGDSLRRYYAN | GENNRPS | SSRDSSGCQVF | 3.39 / 3.29 / 3.68 | 5/9 (3.73) |
| 7 | EGDSLRMYYAN | GKNNRPS | SSRHSSGFQEF | 2.45 / 3.17 / 2.65 | 1/9 (4.08) |
| 8 | EGDSRRYYYAN | GKNNRPS | ISRDSSGFQVF | 4.48 / 4.20 / n.d. | 5/9 (3.91) |
| 9 | EGDSDRYYYAN | GRNNRPS | SSRDSSGFMVF | 3.12 / n.d. / 4.06 | 2/9 (3.62) |
| 10 | EGDSLRYKYAN | NKNNRPS | SSRDSSGFQVM | 2.62 / 2.66 / 3.00 | 1/9 (3.94) |
| 11 | EGDSLRYCYAN | GKNNPPS | SSRDSSGFQEF | 3.57 / 4.99 / 3.91 | 3/9 (3.57) |
| 12 | EGDSLRYYYAN | GKNNPPS | SMRDSSAFQVF | n.d. / n.d. / n.d. | 0/9 |
| 13 | EGDSLWYYYAN | GKNNCQS | SSRDSSGFQVF | 2.48 / 2.65 / 2.72 | 2/9 (3.74) |
| 14 | EGDSLRYYYAN | GKNNYPS | SSRTSSGFQAF | 3.16 / 5.44 / n.d. | 4/9 (3.98) |
| 15 | PGDSLRYYYAN | SKNNRPS | SSRDSFGFQVF | 3.53 / 3.28 / 3.84 | 2/9 (4.59) |
| 16 | EGDSLRYYYAN | GKNKRPS | HSRDSHGFQVF | 3.16 / 3.41 / 2.34 | 1/9 (3.67) |
| 17 | EGDSLVYFYAN | GKNNRPS | SSRNSSGFQVF | 4.57 / n.d. / 3.91 | 4/9 (3.85) |
| 18 | EGDSHRYYYAN | GKNNRPS | SSRDSYGSQVF | n.d. / n.d. / n.d. | 2/9 (4.41) |
| 19 | EGDSIRYYYAN | GKENRPS | SSRDSSGFQVD | 4.16 / n.d. / n.d. | 3/9 (3.89) |
| 20 | EGDSLRYYYAN | GKRNNPS | SSPDSSGFQVF | n.d. / 6.18 / 4.30 | 3/9 (4.59) |
| 21 | EGDSLRYYYAN | GKNNRYS | SPRDSSGFQVF | 2.95 / 3.25 / 3.56 | 5/9 (4.02) |
| 22 | EGDSLRYYPAN | GKNNYPS | SSRDSSGFQVF | 2.02 / 2.36 / 2.04 | 4/9 (3.34) |
| 23 | TGDSLRYYYAN | GKNNRPR | SSKDSSGFQVF | 3.07 / n.d. / n.d. | 1/9 (4.90) |
| 24 | EGDSLRYYYPN | GKNNRPF | SSRDSSGPQVF | 3.74 / 3.47 / 2.47 | 5/9 (3.80) |
| 25 | EGDSLNYAYAN | GKNNRPS | SSRDSSGFQVF | 0.80 / 0.79 / 0.27 | 3/9 (4.24) |
| 26 | EGDSLRYCYAN | GKNNVPS | SSRDSSGFQVA | 3.53 / 3.68 / 3.79 | 6/9 (3.97) |
| 27 | EGDSLRLYYAN | GKNNRVS | SSRDSSCFQVF | 3.51 / 2.96 / 3.45 | 9/9 (4.02) |
| 28 | EADRLRYYYAA | GKNNRPS | SSRDSSGFQVF | 3.86 / n.d. / n.d. | 6/9 (3.92) |
| 29 | EGDSLRYYYAK | GKNNRPS | SSRCSSGSQVF | 4.31 / n.d. / n.d. | 0/9 |
| 30 | EGDSLRYYYCN | GKNNRPS | SSRDSRGYQVF | n.d. / 2.84 / 3.09 | 1/9 (3.32) |
| 31 | EGDSLHYYYAN | GKVNRPS | SSRDSSVFQVF | 3.48 / 5.80 / 4.04 | 7/9 (4.01) |
| 32 | EGDSLAYSYAN | GKNNRPS | SSRDSSFFQVF | 1.03 / 1.02 / 0.28 | 4/9 (4.56) |
| 33 | ERDSLRYYYAN | GKNNRPS | SSRDSWGFHVF | 3.66 / 3.73 / 3.91 | 2/9 (3.85) |
| 34 | EGDSLRYRYAN | HKNNRPS | SSRDSSGFQCF | 2.99 / n.d. / 2.83 | 2/9 (3.99) |
| 35 | EGFSLRYYIAN | GKNNRPS | STRDSSGFQVF | n.d. / n.d. / 4.19 | 3/9 (3.91) |
| 36 | RGDSMRYYYAN | GKNNRPS | SSRDSSGFQVF | 2.61 / 2.49 / 2.47 | 2/9 (4.47) |
| 37 | EGDALHYYYAN | GKNNRPK | SSRDSSGFQVF | 2.33 / 2.01 / 2.15 | 2/9 (4.40) |
| 38 | EGDWLNYYYAN | GKNNIPS | SSRDSSGFQVF | 2.27 / 3.29 / 2.11 | 1/9 (4.30) |
| 39 | EGDSLRYYYAN | GKNNRPS | SSRDSEYFQSF | 2.34 / 2.39 / 1.77 | 1/9 (2.51) |
| 40 | EGDSIRYYYAN | GKNVRPS | SSRDSSFFQVF | 3.21 / 3.16 / 2.91 | 1/9 (4.53) |
| 41 | EGFSDRYTYAN | GKNNRPS | SSRDSSGFQVF | 2.26 / 2.51 / 3.79 | 1/9 (3.52) |

A selection of 6 entries from above:

CDR-L1,CDR-L2,CDR-L3,"replicates, log10 nM",empty controls
EGDSLRYYYAN,GKNKRPS,HSRDSHGFQVF,3.16 / 3.41 / 2.34,1/9 (3.67)
EGDSLRYYYAN,GKNNPPS,SMRDSSAFQVF,n.d. / n.d. / n.d.,0/9
EGDSLRLYYAN,GKNNRVS,SSRDSSCFQVF,3.51 / 2.96 / 3.45,9/9 (4.02)
TGDSLRYYYAN,GKNNRPR,SSKDSSGFQVF,3.07 / n.d. / n.d.,1/9 (4.90)
EGDSLAYSYAN,GKNNRPS,SSRDSSFFQVF,1.03 / 1.02 / 0.28,4/9 (4.56)
EGDSIRYYYAN,GKNVRPS,SSRDSSFFQVF,3.21 / 3.16 / 2.91,1/9 (4.53)

In this assay the parent's reference entry averaged 2.31; its copy inside this library read 2.25.